Test system: 5-LOX product formation in PMNL
Assay: 5-LOX product formation in PMNL stimulated with A23187 (cell-based)
Design: species or system human
Conditions: 60 µM AA, also at higher inhibitor concentrations
Procedure: Briefly, first a cell-based assay allows to determine the inhibition of the 5-LOX product biosynthesis. The cell suspension contained human neutrophils (PMNL) or monocytes, wherein the cells were isolated from buffy coats obtained from healthy donors pooled by gender. An aliquot cell suspension was incubated with the candidate compound for 15 min at 37 °C. The cells are treated with calcium ionophore A23187 to stimulate 5-LOX product formation for further 10 min (37 °C), optionally in presence of various concentrations of AA. The reaction was stopped with 1 mL methanol on ice.
In both assays, product quantification was conducted with RP-HPLC and UV detection after solid phase extraction and addition of 200 ng prostaglandin B1 as internal standard.

In the case of `Cc1cc(OCc2nc3ccccc3s2)ccc1NC(=O)Nc1ccc(Cl)c(Cl)c1` [Compound I-12, N-[4-(2-benzothiazolylmethoxy)-2-methylphenyl]-N'-(3,4-dichlorophenyl)-urea], the “inhibition of product formation” value is reported as “could not achieve an inhibition of product formation below 50%”.
